This note sets out measurements from patent US20050106592A1, “Method for identifying a pharmacologically active substance” (priority 2002, published 2005).

The assay deals with T1, ACE from pig kidney (EC 3.4.15.1) (Sus scrofa, UniProt F1RRW5).
T1 construct: angiotensin-converting-enzyme derived from pig kidney; purchased Sigma; host or cells: pig kidney (tissue-derived enzyme)
T1 sequence (F1RRW5 34-1309): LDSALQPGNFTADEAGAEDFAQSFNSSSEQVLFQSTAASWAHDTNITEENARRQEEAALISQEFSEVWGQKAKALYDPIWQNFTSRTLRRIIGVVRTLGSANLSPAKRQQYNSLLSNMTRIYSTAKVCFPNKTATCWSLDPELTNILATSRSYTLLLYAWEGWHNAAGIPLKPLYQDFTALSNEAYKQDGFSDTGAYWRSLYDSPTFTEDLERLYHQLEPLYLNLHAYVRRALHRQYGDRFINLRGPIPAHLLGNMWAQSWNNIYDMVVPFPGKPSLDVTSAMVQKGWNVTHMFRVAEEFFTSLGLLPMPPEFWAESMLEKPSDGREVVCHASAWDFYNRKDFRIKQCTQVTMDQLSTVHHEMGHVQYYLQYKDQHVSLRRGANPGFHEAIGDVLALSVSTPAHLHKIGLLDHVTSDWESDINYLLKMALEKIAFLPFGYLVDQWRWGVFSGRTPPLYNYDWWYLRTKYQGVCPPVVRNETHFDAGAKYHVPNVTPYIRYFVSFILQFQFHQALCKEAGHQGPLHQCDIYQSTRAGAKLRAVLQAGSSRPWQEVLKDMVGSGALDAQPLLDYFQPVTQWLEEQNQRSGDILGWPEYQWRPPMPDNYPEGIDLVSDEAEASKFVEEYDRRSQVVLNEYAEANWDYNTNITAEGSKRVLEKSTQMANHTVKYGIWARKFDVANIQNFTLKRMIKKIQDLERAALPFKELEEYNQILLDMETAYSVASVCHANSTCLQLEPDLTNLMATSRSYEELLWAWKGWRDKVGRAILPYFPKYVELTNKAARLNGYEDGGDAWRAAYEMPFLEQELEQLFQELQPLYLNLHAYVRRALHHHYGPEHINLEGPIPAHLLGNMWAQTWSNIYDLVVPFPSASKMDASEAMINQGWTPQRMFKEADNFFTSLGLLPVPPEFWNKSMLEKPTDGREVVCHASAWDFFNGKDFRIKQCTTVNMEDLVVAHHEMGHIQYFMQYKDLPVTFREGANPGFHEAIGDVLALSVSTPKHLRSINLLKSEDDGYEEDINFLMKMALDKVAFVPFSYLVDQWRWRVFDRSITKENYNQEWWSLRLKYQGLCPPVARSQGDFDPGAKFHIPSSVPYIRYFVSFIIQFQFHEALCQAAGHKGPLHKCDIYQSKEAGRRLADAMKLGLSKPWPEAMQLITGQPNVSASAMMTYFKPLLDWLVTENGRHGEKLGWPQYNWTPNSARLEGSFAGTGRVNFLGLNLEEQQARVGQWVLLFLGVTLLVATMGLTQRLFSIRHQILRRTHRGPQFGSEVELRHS
The assay is classed as biochemical. The settings on record: Table 2.

For orientation: IC50 means the concentration at which inhibition is half-maximal. `CC(C)C[C@H](NC(=O)[C@H](C)NC(=O)[C@H](C)NC(=O)CNC(=O)[C@H](C)NC(=O)[C@H](CCC(=O)O)NC(=O)[C@H](CCC(=O)O)NC(=O)[C@H](CC(N)=O)NC(=O)[C@@H]1CCCN1C(=O)[C@H](CCC(=O)O)NC(=O)[C@H](CO)NC(=O)[C@H](CC(C)C)NC(=O)[C@@H](NC(=O)[C@@H]1CCC(=O)N1)C(C)C)C(=O)N[C@@H](CO)C(=O)N1CCC[C@H]1C(=O)N[C@@H](CC(C)C)C(=O)N1CCC[C@H]1C(=O)N[C@@H](CCC(=O)O)C(=O)N[C@H](C(=O)N1CCC[C@H]1C(=O)N1CCC[C@H]1C(=O)O)C(C)C` [Peptide S492]: the IC50 is above 300 µM.
